Measured values from published antibiotic growth screens (doi:10.1038/s41589-023-01349-8).
Some of the results follow.

The compounds below were run on A. baumannii ATCC 17978 (assay: relative growth (fraction of control); higher = less inhibition). Settings: 50 µM.
Compound `Cc1nn(C)cc1NC(=O)C[C@H]1CC[C@H]2[C@H](COc3ccc(NC(=O)C4CCOCC4)cc3C(=O)N2C)O1` has a relative growth of 0.959. `CO[C@@H]1CN(C)C(=O)c2ccc(NC(=O)C3CC3)cc2OC[C@@H](C)N(C(=O)C2CCOCC2)C[C@@H]1C` gave a relative growth of 0.997. With `CCCC#Cc1ccc2c(c1)O[C@H](CN(C)C(=O)c1cnccn1)[C@@H](C)CN([C@@H](C)CO)S2(=O)=O` the relative growth was 1.16. For `CCc1c(C)[nH]c(=S)c(C#N)c1C`, the relative growth was 1.1. `O=C(CN1CCOCC1)NCC[C@H]1CC[C@@H](NC(=O)c2ccccc2F)[C@@H](CO)O1` showed a relative growth of 0.954. Work on `O=C(C[C@H]1CC[C@H]2[C@@H](COC[C@@H](O)CN2S(=O)(=O)c2ccc(F)cc2)O1)N[C@@H]1CCN(Cc2ccccc2)C1` yielded a relative growth of 1.01. Work on `CC1(C)CC[C@]2(C(=O)O)CC[C@]3(C)C(=CCC4[C@@]5(C)CC[C@@H](O)C(C)(C)C5CC[C@]43C)C2C1` (stereo partly specified) yielded a relative growth of 0.857. With `Br.CN(C)CCCC1(c2ccc(F)cc2)OCc2cc(C#N)ccc21` (stereo unspecified) the relative growth was 1.14. For `CC1C2C(CC3C4CC[C@H]5C[C@@H](O)CC[C@]5(C)C4CC(=O)[C@@]32C)O[C@]12CC[C@@H](C)CO2` (stereo partly specified), the relative growth was 1.07. Compound `CC(C)[C@@H](C(=O)O)n1cnnn1` has a relative growth of 1.1. Compound `Cc1cc(N)c2ccccc2[n+]1CCCCCCCCCC[n+]1c(C)cc(N)c2ccccc21.[Cl-].[Cl-]` has a relative growth of 0.994. Work on `O=C(C[C@@H]1C=C[C@H](NC(=O)C2CCC2)[C@H](CO)O1)NCCCN1CCOCC1` yielded a relative growth of 0.904. In the case of `CO[C@H](CN(C)S(=O)(=O)c1cn(C)cn1)[C@H](C)CN(C(=O)Nc1ccc(C(F)(F)F)cc1)[C@@H](C)CO`, the relative growth is reported as 0.995. For `COC[C@@H]1CNN1C(=O)OC(C)(C)C`, the relative growth was 1.14. For `COc1ccc([C@@H]([C@H](Cc2ccccc2)OC(C)=O)N2C[C@@H](NC(=O)C(Cl)(Cl)Cl)[C@@H]3C(=NO[C@H]3c3ccccc3)[C@@H]2Cc2ccccc2)cc1`, the relative growth was 0.998. Work on `COC[C@H]1CN(C(=O)c2ccccn2)N1` yielded a relative growth of 1.06. In the case of `O=C(Cn1cnnn1)N[C@@H]1C(=O)N2C(C(=O)O)=C(CSc3nncs3)CS[C@H]12`, the relative growth is reported as 0.672. `C=CC[C@@H](CC(=O)N[C@H](CO)Cc1ccccc1)C(=O)NC[C@@H](OC(=O)[C@@H](CC=C)Cc1ccc(F)cc1)c1ccccc1` was tested, and the relative growth was 0.932. `COc1cc([C@@H]2c3cc4c(cc3C(OC3O[C@@H]5COC(C)O[C@H]5[C@H](O)[C@H]3O)C3COC(=O)[C@@H]32)OCO4)cc(OC)c1O` (stereo partly specified) was tested, and the relative growth was 0.916. With `CCCCCOC(=O)Nc1nc(=O)n([C@@H]2O[C@H](C)[C@@H](O)[C@H]2O)cc1F` the relative growth was 1.08. In the case of `O=C(O)CCN1C(=O)c2ccncc2C1=O`, the relative growth is reported as 0.845. For `O=C(Cc1ccncc1)NCC[C@H]1CC[C@H](NC(=O)C2CCOCC2)[C@@H](CO)O1`, the relative growth was 1.04. `CCC1NC(=O)c2cc(S(N)(=O)=O)c(Cl)cc2N1` (stereo unspecified) was tested, and the relative growth was 1.03. With `O=C(C[C@H]1CC[C@H]2[C@@H](COC[C@H](O)CN2S(=O)(=O)c2ccc(F)cc2)O1)N[C@@H]1CCN(Cc2ccccc2)C1` the relative growth was 1.08. Compound `COC(=O)c1cn(CC(=O)N2CCN(C)CC2)nn1` has a relative growth of 1.01. `CO[C@H]1/C=C/O[C@@]2(C)Oc3c(C)c(O)c4c(O)c(c(C=NN5CCN(C)CC5)c(O)c4c3C2=O)NC(=O)/C(C)=C\C=C\C(C)[C@H](O)[C@@H](C)[C@@H](O)[C@@H](C)[C@@H](OC(C)=O)[C@@H]1C` (stereo in doubt) gave a relative growth of 0.191. Work on `CC(O)(P(=O)(O)O)P(=O)(O)O` yielded a relative growth of 1.05. In the case of `O=C(C[C@H]1CC[C@H]2[C@@H](COC[C@H](O)CN2C(=O)c2ccncc2)O1)NC1CCC1`, the relative growth is reported as 1.01. Work on `O=C(CCCCCC(=O)N/N=C/[C@H](O)[C@@H](O)[C@H](O[C@@H]1O[C@H](CO)[C@H](O)[C@H](O)[C@H]1O)[C@H](O)CO)NO` yielded a relative growth of 0.967. `Cn1c(=O)c2c(nc(SCC(=O)NC(C)(C)C)n2C)n(C)c1=O` showed a relative growth of 1.06. For `Cc1cnc(C(=O)NCCc2ccc(S(=O)(=O)NC(=O)NC3CCCCC3)cc2)cn1`, the relative growth was 1.05. With `Cc1ccc(S(=O)(=O)N2C[C@@H](O)COC[C@H]3O[C@@H](CC(=O)N[C@H]4CCN(Cc5ccccc5)C4)CC[C@@H]32)cc1` the relative growth was 1.14. Work on `C=C1C2CC[C@@]3(C)[C@H](c4ccoc4)OC(=O)C[C@]13O[C@H]1CC(=O)C(C)(C)[C@H](C(O)C(=O)OC)[C@@]21C` (stereo partly specified) yielded a relative growth of 1.13. With `O=C(C[C@@H]1C=C[C@@H](NC(=O)CN2CCOCC2)[C@H](CO)O1)NCc1cccc(F)c1` the relative growth was 1.09. Work on `CC(=O)[C@@]12O[C@]1(C)CC1C3CC=C4C[C@@H](O)CC[C@]4(C)C3CC[C@@]12C` (stereo partly drawn) [16beta-METHYL-16(17)-EPOXY-5-PREGNENOLONE] yielded a relative growth of 1.06. Compound `CCc1cn(C2OCC(O)C2CO)c(=O)nc1O` (stereo unspecified) has a relative growth of 0.932. Work on `C[C@@H]1CN([C@@H](C)CO)C(=O)c2cc(C#CCN(C)C)cnc2O[C@H]1CN(C)Cc1ccc2c(c1)OCO2` yielded a relative growth of 1.12. `O=C(CCc1ccc(O)cc1)c1c(O)c([C@@H]2O[C@H](CO)[C@@H](O)[C@H](O)[C@H]2O)c(O)c([C@@H]2O[C@H](CO)[C@@H](O)[C@H](O)[C@H]2O)c1O` was tested, and the relative growth was 1.02. Compound `[N-]=[N+]=NCc1ccccc1C[C@@]1(C(=O)N2CCCCC2)N=C(c2ccc(OCCCO)cc2)O[C@@H]1c1ccccc1` has a relative growth of 1.14. `COc1cc(C)nc(SCC(N)=O)n1` was tested, and the relative growth was 0.872. For `CCS(=O)(=O)Nc1ccc2c(c1)C(=O)N(C)C[C@H](OC)[C@H](C)CN(Cc1nccs1)[C@@H](C)CO2`, the relative growth was 1.02. Compound `O=c1nc(NCCN2CCOCC2)cn[nH]1` has a relative growth of 0.996. Compound `COCC(=O)N(C)C[C@@H]1Oc2cc(C#Cc3ccccc3)ccc2S(=O)(=O)N([C@@H](C)CO)C[C@H]1C` has a relative growth of 1.01. In the case of `CC(=O)O[C@H]1C[C@@H](OC(C)=O)C(C)(C)[C@@H]2C[C@@H](OC(C)=O)[C@@]3(C)C4=CC(=O)O[C@@H](c5ccoc5)[C@]4(C)CC[C@@H]3[C@@]12C`, the relative growth is reported as 0.943. With `Cc1ccc(S[C@]2(C(=O)NCCCN(C)C)CC(=O)N(Cc3cc(C(F)(F)F)cc(C(F)(F)F)c3)[C@@H]2c2ccc(CO)cc2)cc1` the relative growth was 0.978. `O=C(C[C@@H]1CC[C@H]2[C@@H](COC[C@@H](O)CN2S(=O)(=O)c2ccc(F)cc2)O1)NCc1ccc(Cl)c(Cl)c1` was tested, and the relative growth was 0.746.
